Reference: BindingDB's records for 10585211

Chains of the proteins cited; added tags and fusions are not shown. Lines headed by an entry give the natural chain unless they say otherwise; changes in a name come on top.
UniProt Q62758: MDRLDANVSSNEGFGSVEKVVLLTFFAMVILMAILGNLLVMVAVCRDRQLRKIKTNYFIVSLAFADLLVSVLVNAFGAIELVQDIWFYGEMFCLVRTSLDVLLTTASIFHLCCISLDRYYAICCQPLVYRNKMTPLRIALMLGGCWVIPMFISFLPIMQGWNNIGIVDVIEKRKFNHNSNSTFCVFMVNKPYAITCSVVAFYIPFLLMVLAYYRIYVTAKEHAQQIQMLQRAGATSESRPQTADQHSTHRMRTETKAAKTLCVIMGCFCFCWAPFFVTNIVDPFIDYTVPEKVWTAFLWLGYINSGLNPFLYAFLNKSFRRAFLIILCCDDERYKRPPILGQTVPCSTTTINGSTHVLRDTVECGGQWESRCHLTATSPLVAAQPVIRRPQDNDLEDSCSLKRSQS

Biological target: 5-hydroxytryptamine receptor 4 (Rattus norvegicus, UniProt Q62758)
Assay: In vitro affinity at serotonergic 5-hydroxytryptamine 4 receptor by radioligand binding assay using [3H]GR-113808 in rat striatum membranes.

Q: For O=C(OC1CN2CCC1CC2)c1cccc2nc[nH]c12 (stereo unspecified), which Ki is on record?
A: > 10 µM
